The record followed here is ChEMBL document CHEMBL5380794, “Discovery of a Potent and Selective STAT5 PROTAC Degrader with Strong Antitumor Activity In Vivo in Acute Myeloid Leukemia” (J Med Chem, 2023).

The source made the active and inactive calls. The calls are words filed in the database; no cut-off is given here.

Format in all cases: cell-based
For assay [1], the target named is T1, Signal transducer and activator of transcription 5A (Homo sapiens) (UniProt P42229).
T1 sequence (whole entry): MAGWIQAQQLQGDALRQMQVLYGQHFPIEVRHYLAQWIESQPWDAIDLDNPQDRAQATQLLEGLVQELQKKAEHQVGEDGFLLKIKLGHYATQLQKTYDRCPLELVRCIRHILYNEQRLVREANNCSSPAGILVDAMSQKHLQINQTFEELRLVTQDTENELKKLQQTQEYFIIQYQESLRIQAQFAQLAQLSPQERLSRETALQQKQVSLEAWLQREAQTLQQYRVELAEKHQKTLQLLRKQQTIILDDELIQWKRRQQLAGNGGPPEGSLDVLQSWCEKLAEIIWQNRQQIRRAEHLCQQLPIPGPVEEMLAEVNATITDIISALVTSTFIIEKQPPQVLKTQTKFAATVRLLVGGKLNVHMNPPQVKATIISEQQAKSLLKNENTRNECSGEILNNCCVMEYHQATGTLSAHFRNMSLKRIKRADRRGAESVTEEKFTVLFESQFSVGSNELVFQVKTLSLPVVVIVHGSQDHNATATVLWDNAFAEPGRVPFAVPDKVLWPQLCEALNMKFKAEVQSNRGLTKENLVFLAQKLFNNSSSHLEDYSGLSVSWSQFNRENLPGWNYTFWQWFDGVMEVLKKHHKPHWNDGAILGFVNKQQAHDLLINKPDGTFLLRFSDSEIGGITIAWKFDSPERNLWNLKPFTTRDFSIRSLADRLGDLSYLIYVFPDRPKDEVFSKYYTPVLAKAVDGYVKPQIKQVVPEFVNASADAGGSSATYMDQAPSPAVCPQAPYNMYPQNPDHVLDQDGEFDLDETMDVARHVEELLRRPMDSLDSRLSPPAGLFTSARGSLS
Put plainly: Inhibition of STAT5 phosphorylation in human SKNO-1 cells assessed as reduction in STAT3 phosphorylation at Y694 residue at 1 uM measured for 18 hrs by Western blot analysis. (In general: In western blotting, separated proteins are transferred to a membrane and probed.)

Assay [2] addresses T1, Signal transducer and activator of transcription 5A (Homo sapiens). The assay can be described thus: Induction of STAT5 degradation in human OCI-AML2 cells assessed as reduction in phosphorylated STAT5 level by measuring maximal efficacy measured for 18 hrs by immunoblotting analysis relative to control.
Assay [3] concerns the target T2, STAT5A/STAT5B (Homo sapiens) (UniProt P42229+P51692). The assay can be described thus: Induction of STAT5A/5B degradation in human Kasumi-3 cells assessed as maximal degradation measured for 18 hrs by immunoblotting analysis relative to control.
Assay [4] addresses T1, Signal transducer and activator of transcription 5A (Homo sapiens). Put plainly: Induction of STAT5 degradation in human Kasumi-3 cells assessed as reduction in phosphorylated STAT5 level by measuring maximal efficacy measured for 18 hrs by immunoblotting analysis relative to control.
For assay [5] the target is unchanged. Put plainly: Inhibition of STAT5 phosphorylation in human MV4-11 cells assessed as reduction in STAT5 level at 0.2 uM measured for 6 hrs by Western blot analysis.
Assay [6] shares this target. Put plainly: Induction of STAT5 degradation in human SKNO-1 cells assessed as reduction in phosphorylated STAT5 level by measuring maximal efficacy measured for 18 hrs by immunoblotting analysis relative to control.
In assay [7] the target is T2, STAT5A/STAT5B (Homo sapiens). The assay can be described thus: Induction of STAT5A/5B degradation in human OCI-M2 cells assessed as maximal degradation measured for 18 hrs by immunoblotting analysis relative to control.
Assay [8] has as its target T1, Signal transducer and activator of transcription 5A (Homo sapiens). Put plainly: Induction of STAT5 degradation in human OCI-M2 cells assessed as reduction in phosphorylated STAT5 level by measuring maximal efficacy measured for 18 hrs by immunoblotting analysis relative to control.
The target is the same in assay [9]. Put plainly: Induction of STAT5 degradation in human HL-60 cells assessed as reduction in phosphorylated STAT5 level by measuring maximal efficacy measured for 18 hrs by immunoblotting analysis relative to control.
For assay [10], the target named is T2, STAT5A/STAT5B (Homo sapiens). The assay can be described thus: Induction of STAT5A/5B degradation in human HL-60 cells assessed as maximal degradation measured for 18 hrs by immunoblotting analysis relative to control.
For assay [11] the target is unchanged. The assay can be described thus: Induction of STAT5A/5B degradation in human RS4-11 cells assessed as maximal degradation measured for 18 hrs by immunoblotting analysis relative to control.
For assay [12] the target is unchanged. The assay can be described thus: Induction of STAT5A/5B degradation in human OCI-AML2 cells assessed as maximal degradation measured for 18 hrs by immunoblotting analysis relative to control.
Assay [13] shares this target. Put plainly: Induction of STAT5A/5B degradation in human MOLM-13 cells assessed as maximal degradation measured for 18 hrs by immunoblotting analysis relative to control.
In assay [14] the target is T1, Signal transducer and activator of transcription 5A (Homo sapiens). Put plainly: Induction of STAT5 degradation in human MOLM-13 cells assessed as reduction in phosphorylated STAT5 level by measuring maximal efficacy measured for 18 hrs by immunoblotting analysis relative to control.
Assay [15] deals with T3, Signal transducer and activator of transcription 5B (Homo sapiens) (UniProt P51692).
T3 sequence (whole entry): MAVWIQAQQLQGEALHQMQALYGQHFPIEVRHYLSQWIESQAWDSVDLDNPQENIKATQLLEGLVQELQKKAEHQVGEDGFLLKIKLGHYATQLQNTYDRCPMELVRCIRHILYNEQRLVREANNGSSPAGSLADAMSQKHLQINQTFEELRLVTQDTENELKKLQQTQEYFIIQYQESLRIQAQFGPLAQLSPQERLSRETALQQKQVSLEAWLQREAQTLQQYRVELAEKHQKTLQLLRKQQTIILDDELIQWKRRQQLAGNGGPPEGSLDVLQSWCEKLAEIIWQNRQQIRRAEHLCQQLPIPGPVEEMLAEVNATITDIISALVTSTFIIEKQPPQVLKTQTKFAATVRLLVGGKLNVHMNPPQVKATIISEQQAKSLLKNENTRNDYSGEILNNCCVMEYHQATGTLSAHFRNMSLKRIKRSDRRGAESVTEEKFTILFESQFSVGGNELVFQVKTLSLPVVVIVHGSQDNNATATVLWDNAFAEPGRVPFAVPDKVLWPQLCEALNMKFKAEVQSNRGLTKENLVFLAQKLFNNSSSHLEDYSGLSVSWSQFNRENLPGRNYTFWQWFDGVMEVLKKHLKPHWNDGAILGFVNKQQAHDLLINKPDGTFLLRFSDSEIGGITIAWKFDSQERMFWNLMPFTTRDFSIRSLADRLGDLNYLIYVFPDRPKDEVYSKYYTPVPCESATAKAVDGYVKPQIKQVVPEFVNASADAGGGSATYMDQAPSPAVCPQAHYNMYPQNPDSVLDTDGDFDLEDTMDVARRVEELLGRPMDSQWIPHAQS
Put plainly: Inhibition of STAT5B phosphorylation in human SKNO-1 cells assessed as reduction in STAT5A level at 0.2 uM measured for 18 hrs by Western blot analysis.

Assay [16] concerns the target T2, STAT5A/STAT5B (Homo sapiens). The assay can be described thus: Induction of STAT5A/5B degradation in human SKNO-1 cells assessed as maximal degradation measured for 18 hrs by immunoblotting analysis relative to control.
In assay [17] the target is T1, Signal transducer and activator of transcription 5A (Homo sapiens). The assay can be described thus: Inhibition of STAT5 phosphorylation in human MV4-11 cells assessed as reduction in STAT3 phosphorylation at Y694 residue at 1 uM measured for 6 hrs by Western blot analysis.
The target is the same in assay [18]. Put plainly: Induction of STAT5 degradation in human RS4-11 cells assessed as reduction in phosphorylated STAT5 level by measuring maximal efficacy measured for 18 hrs by immunoblotting analysis relative to control.
The target is the same in assay [19]. The assay can be described thus: Inhibition of STAT5A phosphorylation in human SKNO-1 cells assessed as reduction in STAT5A level at 0.2 uM measured for 18 hrs by Western blot analysis.
Assay [20] has the same target. The assay can be described thus: Induction of STAT5 degradation in human BDCM cells assessed as reduction in phosphorylated STAT5 level by measuring maximal efficacy measured for 18 hrs by immunoblotting analysis relative to control.
Assay [21] addresses T2, STAT5A/STAT5B (Homo sapiens). The assay can be described thus: Induction of STAT5A/5B degradation in human MV4-11 cells assessed as maximal degradation measured for 6 hrs by immunoblotting analysis relative to control.
For assay [22] the target is unchanged. The assay can be described thus: Induction of STAT5A/5B degradation in human BDCM cells assessed as maximal degradation measured for 18 hrs by immunoblotting analysis relative to control.
Assay [23] concerns the target T1, Signal transducer and activator of transcription 5A (Homo sapiens). Put plainly: Induction of STAT5 degradation in human MV4-11 cells assessed as reduction in phosphorylated STAT5 level by measuring maximal efficacy measured for 6 hrs by immunoblotting analysis relative to control.

On to `CN(CCCC#Cc1cccc2c1CN(C1CCC(=O)NC1=O)C2=O)C(=O)CCN(C(=O)[C@@H]1CCCN1C(=O)[C@@H](NC(=O)c1cc2cc(C(F)(F)P(=O)(O)O)ccc2s1)C(C)(C)C)c1ccc(-c2nccs2)cc1` (stereo partly drawn), for which the inhibition (in general, the share of the control response that was lost under treatment) in [1] is greater than 95%; in assay [5], greater than 80%; in assay [15], greater than 72%; in assay [17] it was greater than 95%; in assay [19] it was greater than 75%. In addition, the Emax entry in assay [2], in assay [8], in assay [9], in assay [10], in [13] and in assay [14] was “inactive” in each case. Further, the Emax result in assay [18] and in [20] was “inactive” each time. Besides, the Emax (in general, the size of the effect at its maximum, as opposed to the concentration needed) in [3] is greater than 95%; in assay [4] it was greater than 95%; in [6], greater than 95%; in assay [7], 90%; in assay [11], greater than 95%; in assay [12], greater than 95%. In addition, the maximum response (Emax) in [16], in assay [21], in assay [22] and in assay [23] was greater than 95% throughout.
